Results: patent US20030175810A1, “Assay method and system for identification of P2Y receptor agonists and antagonists” (priority 2000, published 2003)

Chains of the proteins cited; added tags and fusions are not shown. Lines headed by an entry give the natural chain unless they say otherwise; changes in a name come on top.
UniProt P47900: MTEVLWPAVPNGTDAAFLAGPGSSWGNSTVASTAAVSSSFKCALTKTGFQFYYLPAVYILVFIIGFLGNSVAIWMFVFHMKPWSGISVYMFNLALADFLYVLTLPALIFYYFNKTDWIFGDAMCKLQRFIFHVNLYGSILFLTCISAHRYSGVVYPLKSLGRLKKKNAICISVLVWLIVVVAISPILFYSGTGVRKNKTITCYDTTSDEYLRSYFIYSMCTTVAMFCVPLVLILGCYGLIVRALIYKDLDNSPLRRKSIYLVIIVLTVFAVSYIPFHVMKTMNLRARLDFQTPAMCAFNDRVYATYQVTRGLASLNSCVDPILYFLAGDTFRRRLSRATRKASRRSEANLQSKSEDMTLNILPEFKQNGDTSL

Target: T1, P2Y1 receptor (Homo sapiens, UniProt P47900)
T1 construct: hexahistidine; made in house; host or cells: baculovirus / Sf9 insect cells are named only as a preferred embodiment
Experiment: steady state GTP hydrolysis by purified P2Y1-R reconstituted with Gα11 and Gβ1γ2 in proteoliposomes
Type: biochemical
Settings: 100 nM RGS4, FIG. 2A, read-out: EC50 of 2MeSADP for GTP hydrolysis
Method: Purified human P2Y1-R, Gα11, and Gβ1y2 were reconstituted in phospholipid vesicles.
In a glass tube, the following lipid solutions, which are made by solubilizing the lipids in chloroform, are combined: 11 μl PE (10 mg/ml), 7 μl PS (10 mg/ml), 4 μl cholesteryl hemisuccinate (2 mM). The mixture is dried under a stream of N2 or argon to prevent oxidation. The lipids are then dissolved in a buffer containing deoxycholate at 0.4% and sonicated to ensure complete solubilization. Proteins are added sequentially: 50 pmol of the appropriate G protein α subunit, 150 pmol Gβγ and 15 pmol of P2Y receptor. The mixture is passed over a sizing column to isolate the vesicles from the single components and the detergent. […]
In a steady state embodiment of the present invention, vesicles are combined with agonists, GAP proteins γ-[^32P] labeled GTP, all in an appropriate buffer system. […] P2Y receptor-promoted activity is measured as released ^32P, which is separated from [γ-^32P]GTP after the assay is halted by transfer to ice and addition of ice cold 5% slurry or activated charcoal in 20 mM phosphoric acid. […]
The P2Y1 receptor was expressed, purified and reconstituted into vesicles as described herein. GTP hydrolysis was measured by incubation of vesicles with 2 μM [γ^32P]GTP and quantitation of released [^32P]Pi.

2-methylthioadenosine 5′-diphosphate [2MeSADP]
EC50: 220 nM
